# Yeast mating assay B: variants of the scFv Ab-14

Source: Li et al. 2023 (doi:10.1038/s41467-023-39022-2), MIT Lincoln Laboratory and A-Alpha Bio; data file from the FLAb repository.

Antigen: PDVDLGDISGINAS, a 14-residue peptide of the SARS-CoV-2 spike HR2 region.

Parent: Ab-14, a human scFv built as VH, a 15-residue (Gly4Ser)3 linker, VL. Only the CDRs of the light chain vary.
VH: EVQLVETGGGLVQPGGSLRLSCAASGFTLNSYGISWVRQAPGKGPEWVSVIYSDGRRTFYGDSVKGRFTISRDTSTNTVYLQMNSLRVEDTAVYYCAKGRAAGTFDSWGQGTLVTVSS
VL: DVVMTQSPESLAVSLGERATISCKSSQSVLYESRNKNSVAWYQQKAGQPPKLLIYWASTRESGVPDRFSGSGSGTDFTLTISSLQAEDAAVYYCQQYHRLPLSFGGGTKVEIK

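The starting antibody came from a phage panning campaign against this peptide. Designed CDR sequences, proposed from the first random library and measured here. Their group label is 14L_En_Gen (En: ensemble of fine-tuned language models; Gen: genetic algorithm). In AlphaSeq, yeast of one mating type display the scFv and yeast of the other type display the target. The frequency of each diploid, read from paired DNA barcodes, reflects how well the two displayed proteins bind. Read counts were normalised to the haploid input and turned into Kd by a linear fit to BCL2-family pairs of known affinity, for each replicate. There are six technical replicates.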

Sequences are complete VL domains.
The read-out is the apparent dissociation constant on a log10 scale (nM): the lower, the stronger.
"ND" marks a missing value. The strain was present, yet no cells mated with the target were sequenced in that replicate, which points to weak or no binding.
Empty control strains, which show no peptide, gave a signal in 4% of pairings with all light chain designs; the median was 2.64 and 95% of these signals were weaker than 1.59. No background was subtracted. For each scFv, signals with the empty controls are counted beside the result, with their mean in brackets.
Of ten entries with the parent sequence, four were seen in most replicates (averages 0.34 to 2.37), three in one and three in none, so single entries are noisy.
A sequence measured in both rounds can read differently, since the two assays cover different ranges.
The authors' rule: three or more of the six replicates give a measured affinity, fewer mean a poor binder.

VL,"log10 Kd, replicates",control signals
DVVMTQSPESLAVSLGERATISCMISQLMNIGTFAINSVAWYQQKAGQPPKLLIYQASLRCNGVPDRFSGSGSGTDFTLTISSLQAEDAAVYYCQQYDRLPLMFGGGTKVEIK,ND 1.81 ND 1.84 4.10 1.60,0/18
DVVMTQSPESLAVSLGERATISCMMSQVSGLGQRTRNNVAWYQQKAGQPPKLLIYQTSTREPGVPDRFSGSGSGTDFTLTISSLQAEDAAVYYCQQYDRLPLIFGGGTKVEIK,0.53 0.73 0.83 0.60 0.88 0.56,1/18 (3.26)
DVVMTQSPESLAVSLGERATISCKIGATLNTLSHKQNNVAWYQQKAGQPPKLLIYDLVTRENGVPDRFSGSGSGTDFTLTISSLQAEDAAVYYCQQYFRLPLSFGGGTKVEIK,0.16 -0.14 -0.20 -0.20 -0.08 0.08,2/18 (3.08)
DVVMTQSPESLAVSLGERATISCMVTQMAMSGMKNKRSVAWYQQKAGQPPKLLIYNAETREYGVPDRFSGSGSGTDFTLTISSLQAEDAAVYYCQQYHRLPLIFGGGTKVEIK,1.18 0.48 0.13 0.56 0.32 0.68,1/18 (3.32)
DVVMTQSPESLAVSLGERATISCTLYGLSMSMSKNKNNVAWYQQKAGQPPKLLIYEMTTREDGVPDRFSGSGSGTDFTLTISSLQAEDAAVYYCQQYDRLPLVFGGGTKVEIK,0.47 ND ND ND ND ND,0/18
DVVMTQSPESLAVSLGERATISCMVSQLMLWGMHVKNSIAWYQQKAGQPPKLLIYEAQTRLNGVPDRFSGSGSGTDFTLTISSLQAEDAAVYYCQQYDRLPLFFGGGTKVEIK,ND ND 3.13 ND ND ND,0/18
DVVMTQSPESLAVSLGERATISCTISSIMNHLTRNSNNVAWYQQKAGQPPKLLIYNMDMREAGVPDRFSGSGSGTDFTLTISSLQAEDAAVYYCQQYDRLPLSFGGGTKVEIK,0.90 0.61 0.53 1.11 1.08 0.91,3/18 (2.32)
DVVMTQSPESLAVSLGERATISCMVTQMAMTGMMSKRSVAWYQQKAGQPPKLLIYNATTRESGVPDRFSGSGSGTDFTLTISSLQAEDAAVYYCQQYHRLPLIFGGGTKVEIK,1.29 0.71 0.83 1.35 0.71 1.15,0/18
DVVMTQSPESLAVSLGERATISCHMSMLTLSGMRHRNSVAWYQQKAGQPPKLLIYQMTTRENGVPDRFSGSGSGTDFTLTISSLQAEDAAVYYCQQYDRLPLAFGGGTKVEIK,ND 2.12 ND 2.03 1.68 4.07,1/18 (2.33)
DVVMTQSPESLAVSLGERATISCMISQMWNMGQFAINSVAWYQQKAGQPPKLLIYQASERNTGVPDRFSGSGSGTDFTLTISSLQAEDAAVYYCQQYDRLPLIFGGGTKVEIK,2.07 1.73 1.38 1.52 1.47 1.59,1/18 (3.11)
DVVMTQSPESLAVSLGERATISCKLTMITGLEKIHGNNVAWYQQKAGQPPKLLIYEMETREKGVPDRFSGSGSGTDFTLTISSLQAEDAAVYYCQQYNRLPLSFGGGTKVEIK,0.33 0.34 0.22 0.09 0.28 0.49,0/18
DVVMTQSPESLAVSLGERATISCKISQMVRVGQTHSNSIAWYQQKAGQPPKLLIYEEATRAKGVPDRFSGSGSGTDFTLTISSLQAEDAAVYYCQQYHRLPLSFGGGTKVEIK,0.43 0.16 -0.17 0.28 0.32 0.74,0/18
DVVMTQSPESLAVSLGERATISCKIGFTLNMLEYKQNNVAWYQQKAGQPPKLLIYDLVTRENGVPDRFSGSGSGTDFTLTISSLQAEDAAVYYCQQYHRLPLSFGGGTKVEIK,2.02 0.79 0.52 0.92 0.86 1.44,0/18
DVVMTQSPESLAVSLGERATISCMISQLYNMGQFAINSVAWYQQKAGQPPKLLIYQAETRNEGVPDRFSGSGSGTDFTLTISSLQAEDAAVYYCQQYDRLPLMFGGGTKVEIK,ND 2.91 1.48 ND 1.79 ND,0/18
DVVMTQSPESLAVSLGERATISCKIGAHLNTLMHTKNNVAWYQQKAGQPPKLLIYDLVTREQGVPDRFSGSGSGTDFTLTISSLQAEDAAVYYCQQYHRLPLSFGGGTKVEIK,1.13 0.65 1.04 1.27 1.21 0.88,0/18
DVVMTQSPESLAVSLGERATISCHMSALTLMGSRNRNSVAWYQQKAGQPPKLLIYQMTTRENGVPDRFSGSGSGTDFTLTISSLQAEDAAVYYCQQYDRLPLAFGGGTKVEIK,ND ND ND 3.17 ND ND,0/18
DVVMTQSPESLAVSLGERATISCKVSEFPRGLMSRQDSIAWYQQKAGQPPKLLIYDNVTRENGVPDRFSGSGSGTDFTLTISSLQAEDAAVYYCQQYDRLPLSFGGGTKVEIK,2.10 2.23 ND 3.19 1.69 2.05,1/18 (2.67)
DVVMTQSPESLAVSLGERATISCKIGHTLNTLYEKANNVAWYQQKAGQPPKLLIYDLVTRENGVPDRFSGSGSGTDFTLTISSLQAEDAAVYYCQQYHRLPLSFGGGTKVEIK,0.37 0.18 0.07 0.16 0.06 0.25,1/18 (3.22)